Laboratory results as given in article PMC4703101 (Chemical research in toxicology, 2015).

Test system: Aldehyde Oxidase
Test: Aldehyde oxidase assay, liver cytosol
Details: WT mouse liver cytosol; substrate 25 μM (DMAC), 100 μM (AαC); N.D. = not detected

## p-dimethylaminocinnamaldehyde [DMAC, reference compound]
  Aldehyde Oxidase: 783 ± 93 nmol/min/mg protein
